# Assay results published in ChEMBL document CHEMBL1629679, “Extended-spectrum cephalosporinases in Pseudomonas aeruginosa” (2009).
# Legend:
# Pseudomonas aeruginosa [1] = experiment: Activity at Pseudomonas aeruginosa PDC-2 by spectrophotometer
# Pseudomonas aeruginosa [2] = experiment: Activity at Pseudomonas aeruginosa PDC-3 by spectrophotometer
# Pseudomonas aeruginosa [3] = experiment: Ratio of Kcat to Km for Pseudomonas aeruginosa PDC-2 by spectrophotometer
# Pseudomonas aeruginosa [4] = experiment: Ratio of Kcat to Km for Pseudomonas aeruginosa PDC-3 by spectrophotometer
Km (Pseudomonas aeruginosa [1]),kcat (Pseudomonas aeruginosa [1]),Km (Pseudomonas aeruginosa [2]),kcat (Pseudomonas aeruginosa [2]),kcat/Km (Pseudomonas aeruginosa [3]),kcat/Km (Pseudomonas aeruginosa [4]),Structure (SMILES)
50 µM,110 s⁻¹,45 µM,120 s⁻¹,2.2 µM⁻¹ s⁻¹,2.75 µM⁻¹ s⁻¹,CC(=O)OCC1=C(C(=O)O)N2C(=O)[C@@H](NC(=O)Cc3cccs3)[C@H]2SC1
30 µM,2 s⁻¹,25 µM,2.5 s⁻¹,0.07 µM⁻¹ s⁻¹,0.1 µM⁻¹ s⁻¹,CC1(C)S[C@@H]2[C@H](NC(=O)[C@H](N)c3ccc(O)cc3)C(=O)N2[C@H]1C(=O)O

Structure (SMILES),Km (Pseudomonas aeruginosa [1]),kcat (Pseudomonas aeruginosa [1]),Km (Pseudomonas aeruginosa [2]),kcat (Pseudomonas aeruginosa [2]),kcat/Km (Pseudomonas aeruginosa [3]),kcat/Km (Pseudomonas aeruginosa [4])
CO[C@@]1(NC(=O)Cc2cccs2)C(=O)N2C(C(=O)O)=C(COC(N)=O)CS[C@@H]21,0.5 µM,0.08 s⁻¹,0.5 µM,0.5 s⁻¹,0.16 µM⁻¹ s⁻¹,0.2 µM⁻¹ s⁻¹
